Data: patent publication US6596312B1, “Hydrolyzed cellulose granulations of salts of drugs” (R.P. Scherer Technologies, Inc., priority 1999, dated 2003)

Experiment: Solubility of ibuprofen forms as a function of pH (FIG. 1)
Type: physicochemical
Details: pH below about 6.0 (FIG. 1)

Question: For `CC(C)Cc1ccc(C(C)C(=O)O)cc1` (stereo not shown) [unprocessed ibuprofen, ibuprofen], which “dissolution when the pH is below about 6.0” value is on record?
Answer: no appreciable dissolution
